Reference: PubChem BioAssay (EPA / NIEHS)
The list shows a part of the results, in another mix than the full data. Records with an inconclusive call do not appear. Activity calls are given as the source filed them. The calls were made as follows: active = hit-call score of the fitted dose curve at least 0.9, where 1 is the maximum; inconclusive = response in the unintended direction; inactive = score below 0.9.

Sequences of proteins named here, by UniProt entry; tags and fusion partners are left off. A change or cut given only in a name is not applied to a line headed by its entry.
UniProt P18031: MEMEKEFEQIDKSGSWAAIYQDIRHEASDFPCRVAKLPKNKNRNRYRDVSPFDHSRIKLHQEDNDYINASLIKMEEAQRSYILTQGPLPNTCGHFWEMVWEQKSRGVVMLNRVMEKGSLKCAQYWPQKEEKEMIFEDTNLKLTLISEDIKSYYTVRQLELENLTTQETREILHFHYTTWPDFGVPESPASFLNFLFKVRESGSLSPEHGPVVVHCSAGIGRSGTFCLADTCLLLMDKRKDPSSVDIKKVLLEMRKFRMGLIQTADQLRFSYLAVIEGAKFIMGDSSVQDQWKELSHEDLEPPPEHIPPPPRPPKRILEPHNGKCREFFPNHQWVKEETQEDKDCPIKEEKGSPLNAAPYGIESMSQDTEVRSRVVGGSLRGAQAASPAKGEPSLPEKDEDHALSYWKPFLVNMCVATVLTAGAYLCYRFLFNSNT
UniProt P60484: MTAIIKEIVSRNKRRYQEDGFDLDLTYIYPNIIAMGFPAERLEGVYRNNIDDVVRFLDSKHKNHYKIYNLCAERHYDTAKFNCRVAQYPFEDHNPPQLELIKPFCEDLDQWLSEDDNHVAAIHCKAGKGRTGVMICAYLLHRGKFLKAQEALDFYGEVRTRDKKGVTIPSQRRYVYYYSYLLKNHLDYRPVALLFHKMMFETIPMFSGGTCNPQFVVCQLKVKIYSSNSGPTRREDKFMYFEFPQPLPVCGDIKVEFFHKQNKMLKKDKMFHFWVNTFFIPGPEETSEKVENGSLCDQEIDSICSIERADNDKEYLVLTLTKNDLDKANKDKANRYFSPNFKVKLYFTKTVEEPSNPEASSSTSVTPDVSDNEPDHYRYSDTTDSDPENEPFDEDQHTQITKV
UniProt Q05209: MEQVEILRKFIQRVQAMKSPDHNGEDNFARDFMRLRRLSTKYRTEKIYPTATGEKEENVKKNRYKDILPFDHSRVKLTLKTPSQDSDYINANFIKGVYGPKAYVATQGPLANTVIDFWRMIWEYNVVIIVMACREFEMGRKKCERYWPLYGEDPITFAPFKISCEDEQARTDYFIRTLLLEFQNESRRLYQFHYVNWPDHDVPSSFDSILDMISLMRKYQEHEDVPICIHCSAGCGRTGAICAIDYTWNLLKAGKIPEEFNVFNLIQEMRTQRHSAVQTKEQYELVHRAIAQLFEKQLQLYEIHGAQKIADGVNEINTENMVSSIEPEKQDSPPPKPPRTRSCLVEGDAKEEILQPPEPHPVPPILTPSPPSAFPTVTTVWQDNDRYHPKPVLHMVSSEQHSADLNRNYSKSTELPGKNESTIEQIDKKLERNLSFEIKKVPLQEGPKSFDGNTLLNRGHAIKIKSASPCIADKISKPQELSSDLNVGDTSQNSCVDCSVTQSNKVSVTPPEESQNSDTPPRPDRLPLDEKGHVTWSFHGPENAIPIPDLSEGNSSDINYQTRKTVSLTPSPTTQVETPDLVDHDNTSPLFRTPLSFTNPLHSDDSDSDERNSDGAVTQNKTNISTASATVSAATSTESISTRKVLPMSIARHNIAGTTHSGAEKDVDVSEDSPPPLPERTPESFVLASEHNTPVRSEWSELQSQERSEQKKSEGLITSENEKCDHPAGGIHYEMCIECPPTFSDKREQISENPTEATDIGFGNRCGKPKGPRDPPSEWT
UniProt P43378: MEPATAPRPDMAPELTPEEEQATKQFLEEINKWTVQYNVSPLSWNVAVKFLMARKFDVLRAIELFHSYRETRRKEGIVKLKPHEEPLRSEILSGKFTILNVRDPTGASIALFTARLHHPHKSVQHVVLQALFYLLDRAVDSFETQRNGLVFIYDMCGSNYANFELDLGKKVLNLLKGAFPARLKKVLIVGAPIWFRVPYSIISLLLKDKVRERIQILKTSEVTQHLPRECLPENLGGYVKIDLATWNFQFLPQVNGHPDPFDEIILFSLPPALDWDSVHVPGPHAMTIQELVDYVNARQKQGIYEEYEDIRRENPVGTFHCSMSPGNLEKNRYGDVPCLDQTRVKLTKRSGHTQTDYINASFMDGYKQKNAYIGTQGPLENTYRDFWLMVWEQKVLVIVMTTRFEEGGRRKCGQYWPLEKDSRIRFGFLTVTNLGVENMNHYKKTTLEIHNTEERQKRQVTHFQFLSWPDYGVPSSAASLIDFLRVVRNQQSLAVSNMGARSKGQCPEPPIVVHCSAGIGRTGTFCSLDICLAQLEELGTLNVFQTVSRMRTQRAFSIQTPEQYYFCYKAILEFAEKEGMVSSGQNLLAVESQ
UniProt P10586, whole entry, looked up: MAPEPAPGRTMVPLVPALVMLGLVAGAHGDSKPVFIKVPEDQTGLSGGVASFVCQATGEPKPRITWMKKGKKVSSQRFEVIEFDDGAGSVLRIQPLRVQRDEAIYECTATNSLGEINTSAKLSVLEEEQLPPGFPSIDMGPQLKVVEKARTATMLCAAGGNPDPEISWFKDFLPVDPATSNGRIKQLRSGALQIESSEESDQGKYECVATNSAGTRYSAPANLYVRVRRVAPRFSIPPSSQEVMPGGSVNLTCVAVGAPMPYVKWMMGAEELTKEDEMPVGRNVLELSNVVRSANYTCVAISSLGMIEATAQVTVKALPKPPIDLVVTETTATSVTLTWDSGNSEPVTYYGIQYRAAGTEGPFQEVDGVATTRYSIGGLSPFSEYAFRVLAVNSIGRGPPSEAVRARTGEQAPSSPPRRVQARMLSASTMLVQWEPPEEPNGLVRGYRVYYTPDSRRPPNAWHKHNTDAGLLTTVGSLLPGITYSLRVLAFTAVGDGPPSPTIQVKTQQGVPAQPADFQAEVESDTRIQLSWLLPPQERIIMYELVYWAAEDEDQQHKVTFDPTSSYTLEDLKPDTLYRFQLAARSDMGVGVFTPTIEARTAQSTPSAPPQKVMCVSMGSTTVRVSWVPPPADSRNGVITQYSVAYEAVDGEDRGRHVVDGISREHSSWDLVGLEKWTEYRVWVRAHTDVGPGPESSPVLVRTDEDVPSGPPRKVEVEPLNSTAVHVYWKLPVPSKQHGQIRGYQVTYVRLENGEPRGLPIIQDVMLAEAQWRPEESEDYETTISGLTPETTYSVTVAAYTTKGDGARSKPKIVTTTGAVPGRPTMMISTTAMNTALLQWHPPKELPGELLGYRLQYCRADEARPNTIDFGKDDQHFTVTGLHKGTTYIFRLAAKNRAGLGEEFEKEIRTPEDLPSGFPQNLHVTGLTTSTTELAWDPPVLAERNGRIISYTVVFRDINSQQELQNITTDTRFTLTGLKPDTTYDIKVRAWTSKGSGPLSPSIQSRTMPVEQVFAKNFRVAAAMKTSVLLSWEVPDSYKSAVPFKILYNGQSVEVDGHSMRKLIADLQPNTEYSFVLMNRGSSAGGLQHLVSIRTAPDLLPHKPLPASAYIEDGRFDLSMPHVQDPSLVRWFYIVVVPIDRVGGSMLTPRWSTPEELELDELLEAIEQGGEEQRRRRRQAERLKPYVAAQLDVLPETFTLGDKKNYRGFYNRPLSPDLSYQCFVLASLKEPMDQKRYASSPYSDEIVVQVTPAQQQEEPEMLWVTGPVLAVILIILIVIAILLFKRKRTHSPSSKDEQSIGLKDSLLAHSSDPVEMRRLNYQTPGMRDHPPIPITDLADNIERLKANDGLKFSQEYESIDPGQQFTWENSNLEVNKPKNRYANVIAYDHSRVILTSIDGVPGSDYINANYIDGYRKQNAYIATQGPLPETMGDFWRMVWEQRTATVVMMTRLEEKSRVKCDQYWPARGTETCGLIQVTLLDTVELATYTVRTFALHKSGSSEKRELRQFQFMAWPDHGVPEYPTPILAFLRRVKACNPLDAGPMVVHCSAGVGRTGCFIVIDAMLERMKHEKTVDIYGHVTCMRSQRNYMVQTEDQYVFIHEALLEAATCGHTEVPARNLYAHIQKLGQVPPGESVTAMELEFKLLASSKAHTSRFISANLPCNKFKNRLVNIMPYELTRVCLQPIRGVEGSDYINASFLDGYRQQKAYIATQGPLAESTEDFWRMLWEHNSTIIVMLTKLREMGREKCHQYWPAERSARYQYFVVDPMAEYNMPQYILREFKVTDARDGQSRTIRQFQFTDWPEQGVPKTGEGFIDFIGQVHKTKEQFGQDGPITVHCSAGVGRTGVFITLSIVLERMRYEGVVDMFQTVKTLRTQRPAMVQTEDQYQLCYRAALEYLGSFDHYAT
UniProt P28827, whole entry, looked up: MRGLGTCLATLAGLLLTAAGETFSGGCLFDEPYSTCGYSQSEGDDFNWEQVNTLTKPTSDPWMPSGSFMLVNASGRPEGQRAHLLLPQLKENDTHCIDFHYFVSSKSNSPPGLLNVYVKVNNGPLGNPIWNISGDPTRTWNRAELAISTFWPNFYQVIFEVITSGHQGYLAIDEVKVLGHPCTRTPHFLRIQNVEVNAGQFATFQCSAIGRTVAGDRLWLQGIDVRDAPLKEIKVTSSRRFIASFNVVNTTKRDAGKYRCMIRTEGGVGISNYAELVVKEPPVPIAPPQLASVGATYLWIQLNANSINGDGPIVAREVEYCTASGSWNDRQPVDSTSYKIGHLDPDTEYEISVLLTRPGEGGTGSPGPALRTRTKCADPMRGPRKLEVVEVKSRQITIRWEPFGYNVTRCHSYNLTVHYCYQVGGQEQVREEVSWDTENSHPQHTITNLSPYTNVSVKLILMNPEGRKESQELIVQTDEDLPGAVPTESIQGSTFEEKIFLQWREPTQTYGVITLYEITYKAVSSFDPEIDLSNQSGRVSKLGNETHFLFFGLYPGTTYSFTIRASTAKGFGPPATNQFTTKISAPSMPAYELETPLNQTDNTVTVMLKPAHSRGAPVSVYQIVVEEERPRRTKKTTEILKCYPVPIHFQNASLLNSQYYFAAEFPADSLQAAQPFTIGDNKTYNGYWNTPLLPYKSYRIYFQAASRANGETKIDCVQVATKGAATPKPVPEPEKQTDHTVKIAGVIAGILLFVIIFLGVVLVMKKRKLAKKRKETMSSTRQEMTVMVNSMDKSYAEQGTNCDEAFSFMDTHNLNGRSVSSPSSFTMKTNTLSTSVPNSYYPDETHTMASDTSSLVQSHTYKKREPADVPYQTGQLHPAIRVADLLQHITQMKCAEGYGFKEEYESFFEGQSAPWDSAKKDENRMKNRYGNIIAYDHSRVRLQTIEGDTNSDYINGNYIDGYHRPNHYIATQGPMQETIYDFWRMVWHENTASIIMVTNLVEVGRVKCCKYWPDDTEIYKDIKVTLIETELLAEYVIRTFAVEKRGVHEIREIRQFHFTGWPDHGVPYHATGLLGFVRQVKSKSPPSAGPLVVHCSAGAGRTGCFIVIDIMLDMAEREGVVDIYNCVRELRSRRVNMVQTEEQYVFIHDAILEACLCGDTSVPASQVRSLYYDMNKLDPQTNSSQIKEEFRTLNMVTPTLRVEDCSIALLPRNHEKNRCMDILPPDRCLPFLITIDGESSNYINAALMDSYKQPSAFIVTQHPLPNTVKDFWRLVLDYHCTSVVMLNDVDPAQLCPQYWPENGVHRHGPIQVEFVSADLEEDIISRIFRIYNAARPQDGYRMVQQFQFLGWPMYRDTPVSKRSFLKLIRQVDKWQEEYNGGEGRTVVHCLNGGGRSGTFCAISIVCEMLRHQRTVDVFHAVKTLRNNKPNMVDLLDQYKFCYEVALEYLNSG
UniProt P17706: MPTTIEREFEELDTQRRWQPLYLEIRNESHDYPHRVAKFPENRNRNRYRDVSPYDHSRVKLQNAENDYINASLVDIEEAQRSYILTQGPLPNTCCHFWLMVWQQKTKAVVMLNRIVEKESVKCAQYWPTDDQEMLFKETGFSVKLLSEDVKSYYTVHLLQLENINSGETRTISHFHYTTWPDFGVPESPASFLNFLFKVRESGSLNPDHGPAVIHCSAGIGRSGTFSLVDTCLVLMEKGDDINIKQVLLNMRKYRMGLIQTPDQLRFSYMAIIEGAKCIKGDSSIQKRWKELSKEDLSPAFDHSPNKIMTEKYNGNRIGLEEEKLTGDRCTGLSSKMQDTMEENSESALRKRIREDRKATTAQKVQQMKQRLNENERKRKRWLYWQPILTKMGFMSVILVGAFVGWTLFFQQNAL

Assays:
[1] = target: human Protein Tyrosine Phosphatase Non-receptor Type 1 (PTPN1), PTPN1 (gene 5770) (UniProt P18031); experiment: NVS_ENZ_hPTPN1: NovaScreen (NVS) Enzymatic Assay for human Protein Tyrosine Phosphatase Non-receptor Type 1 (PTPN1) (AID 2283201)
In short: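 Chemicals were first tested in duplicate at 25 uM, and those passing threshold went on to singleton concentration series topping at 50 uM. Recombinant enzyme, specific substrate, product separated by mobility shift, fluorescence read at 1.33 h; activity loss relative to DMSO.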

[2] = target: Tyrosine-protein phosphatase non-receptor type 11 (Homo sapiens) (UniProt Q06124); experiment: NVS_ENZ_hPTPN11: NovaScreen (NVS) Enzymatic Assay for human Protein Tyrosine Phosphatase Non-receptor Type 11 (PTPN11) (AID 2283202)
In short: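 Compounds first tested in duplicate at 25 uM; those reaching ~30% inhibition rerun in singleton concentration-response, top 50 uM. Phosphatase activity measured after 0.5 h by fluorescence with mobility-shift separation, relative to DMSO.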

[3] = target: human Phosphatase and Tensin Homolog (PTEN), PTEN (gene 5728) (UniProt P60484); experiment: NVS_ENZ_hPTEN: NovaScreen (NVS) Enzymatic Assay for human Phosphatase and Tensin Homolog (PTEN) (AID 2283203)
Method: NVS_ENZ_hPTEN is a biochemical, single-readout assay that uses extracted gene-proteins in a cell-free assay. Measurements were taken 1 hour after chemical dosing in a 384-well plate.NVS_ENZ_hPTEN is one of one assay component(s) measured or calculated from the NVS_ENZ_hPTEN assay. It is designed to make measurements of enzyme activity, a form of enzyme reporter, as detected with fluorescence intensity signals by Fluorescence and electrophoretic mobility shift technology.Data from the assay component NVS_ENZ_hPTEN was analyzed into 1 assay endpoint. This assay endpoint, NVS_ENZ_hPTEN, was analyzed in the positive analysis fitting direction relative to DMSO as the negative control and baseline of activity. Using a type of enzyme reporter, loss-of-signal activity can be used to understand changes in the enzymatic activity as they relate to the gene PTEN. Furthermore, this assay endpoint can be referred to as a primary readout, because this assay has produced multiple assay endpoints where this one serves a enzymatic activity function. To generalize the intended target to other relatable targets, this assay endpoint is annotated to the phosphatase intended target family, where the subfamily is dual-specific phosphatase. […]

[4] = target: Tyrosine-protein phosphatase non-receptor type 12 (Homo sapiens) (UniProt Q05209); experiment: NVS_ENZ_hPTPN12: NovaScreen (NVS) Enzymatic Assay for human Protein Tyrosine Phosphatase Non-receptor Type 12 (PTPN12) (AID 2283204)
In short: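 Single-concentration duplicates (25 uM) preceded singleton concentration-response up to 50 uM for chemicals passing threshold. Cell-free recombinant PTPN12 activity was read 1.33 h after dosing via fluorescence after mobility-shift separation; loss of signal versus DMSO.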

[5] = target: Tyrosine-protein phosphatase non-receptor type 13 (Homo sapiens) (UniProt Q12923); experiment: NVS_ENZ_hPTPN13: NovaScreen (NVS) Enzymatic Assay for human Protein Tyrosine Phosphatase Non-receptor Type 13 (PTPN13) (AID 2283205)
In short: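 Screened first at a single 25 uM in duplicate; compounds passing the threshold (e.g. 30% inhibition) were rerun in concentration series, top 50 uM. Recombinant enzyme, fluorescent substrate, mobility-shift separation, 0.5 h read. Data fitted as inhibition relative to DMSO.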

[6] = target: Tyrosine-protein phosphatase non-receptor type 14 (Homo sapiens) (UniProt Q15678); experiment: NVS_ENZ_hPTPN14: NovaScreen (NVS) Enzymatic Assay for human Protein Tyrosine Phosphatase Non-receptor Type 14 (PTPN14) (AID 2283206)
Method: NVS_ENZ_hPTPN14 is a biochemical, single-readout assay that uses extracted gene-proteins in a cell-free assay. Measurements were taken 0.5 hour after chemical dosing in a 384-well plate.NVS_ENZ_hPTPN14 is one of one assay component(s) measured or calculated from the NVS_ENZ_hPTPN14 assay. It is designed to make measurements of enzyme activity, a form of enzyme reporter, as detected with fluorescence intensity signals by Fluorescence and electrophoretic mobility shift technology.Data from the assay component NVS_ENZ_hPTPN14 was analyzed into 1 assay endpoint. This assay endpoint, NVS_ENZ_hPTPN14, was analyzed in the positive analysis fitting direction relative to DMSO as the negative control and baseline of activity. Using a type of enzyme reporter, loss-of-signal activity can be used to understand changes in the enzymatic activity as they relate to the gene PTPN14. Furthermore, this assay endpoint can be referred to as a primary readout, because this assay has produced multiple assay endpoints where this one serves a enzymatic activity function. To generalize the intended target to other relatable targets, this assay endpoint is annotated to the phosphatase intended target family, where the subfamily is non-receptor tyrosine phosphatase. […]

[7] = target: human Protein Tyrosine Phosphatase Non-receptor Type 9 (PTPN9), PTPN9 (gene 5780) (UniProt P43378); experiment: NVS_ENZ_hPTPN9: NovaScreen (NVS) Enzymatic Assay for human Protein Tyrosine Phosphatase Non-receptor Type 9 (PTPN9) (AID 2283209)
In short: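 Sf9-expressed enzyme in a cell-free assay, fluorescence read 1.33 h after dosing with mobility-shift separation of substrate and product. Tested at 25 uM in duplicate, then up to 50 uM; signal loss versus DMSO.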

[8] = target: human Protein Tyrosine Phosphatase Receptor Type F (PTPRF), PTPRF (gene 5792) (UniProt P10586); experiment: NVS_ENZ_hPTPRF: NovaScreen (NVS) Enzymatic Assay for human Protein Tyrosine Phosphatase Receptor Type F (PTPRF) (AID 2283213)
In short: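 Cell-free fluorescence enzyme assay with recombinant protein and substrate; product separated by electrophoretic mobility shift. Read 1 h after dosing, single 25 uM duplicate screen, then concentration-response up to 50 uM; loss of signal vs DMSO.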

[9] = target: human Protein Tyrosine Phosphatase Receptor Type M (PTPRM), PTPRM (gene 5797) (UniProt P28827); experiment: NVS_ENZ_hPTPRM: NovaScreen (NVS) Enzymatic Assay for human Protein Tyrosine Phosphatase Receptor Type M (PTPRM) (AID 2283215)
In short: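 Read-out is fluorescence after electrophoretic separation of substrate and product, taken 1.33 h post-dosing with recombinant enzyme. Compounds screened at 25 uM in duplicate, then concentration series for actives; activity as signal loss relative to DMSO.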

[10] = target: human Protein Tyrosine Phosphatase Non-receptor Type 2 (PTPN2), PTPN2 (gene 5771) (UniProt P17706); experiment: NVS_ENZ_hPTPN2: NovaScreen (NVS) Enzymatic Assay for human Protein Tyrosine Phosphatase Non-receptor Type 2 (PTPN2) (AID 2283207)
In short: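 Activity measured as fluorescence after mobility-shift separation of substrate and product, 1 h after compound. Duplicate single-point 25 uM primary testing, concentration series for actives; inhibition scored as signal loss relative to DMSO baseline.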

Measured: outcome

Cc1cc([N+](=O)[O-])cc([N+](=O)[O-])c1O
inactive: [1] | [2] | [3] | [4] | [5] | [6] | [7] | [8] | [9]

CC(C)OP(=S)(OC(C)C)SCCNS(=O)(=O)c1ccccc1
inactive: [10]
